# Values of other authors, collected in patent US7267813B2 (Orion Corporation, priority 2000, dated 2007).
substance,measurement,setting,value
Formoterol fumarate,solubility in ethanol,solvent ethanol,sparingly soluble
same,solubility in glacial acetic acid,solvent glacial acetic acid,freely soluble
same,solubility in methanol,solvent methanol,soluble
